Yeast mating assay B: variants of the scFv Ab-14

From the AlphaSeq antibody data of Li et al. 2023 (doi:10.1038/s41467-023-39022-2), copy in the FLAb collection.

Target peptide (SARS-CoV-2 spike, HR2 region): PDVDLGDISGINAS

Ab-14 is the parent antibody, in scFv form: VH, then a (GGGGS)3 linker, then VL. The heavy chain is unchanged in all variants.
VH: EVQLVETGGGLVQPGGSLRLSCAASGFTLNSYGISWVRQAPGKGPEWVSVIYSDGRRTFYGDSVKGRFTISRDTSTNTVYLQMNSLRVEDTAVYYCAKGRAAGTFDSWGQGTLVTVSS
VL: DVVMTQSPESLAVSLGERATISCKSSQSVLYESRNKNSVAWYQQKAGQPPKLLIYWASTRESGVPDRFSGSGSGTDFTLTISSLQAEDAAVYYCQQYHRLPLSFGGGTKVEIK

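The parent was found by panning a naive human phage display library on the peptide. These sequences belong to a second round, designed from the earlier measurements on random variants of the parent. Their group label is 14L_GP_HC (GP: Gaussian process model; HC: hill climbing; a sequence that several methods proposed may carry one label only). The assay is AlphaSeq: two haploid yeast populations carry antibody and antigen on their surface. Mating (16 h, 30 °C) was followed by selection of diploids and sequencing of their barcodes. Read counts were normalised to the haploid input and turned into Kd by a linear fit to BCL2-family pairs of known affinity, for each replicate. Mating was done six times.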

Substitutions are numbered in sequence along the VL above, starting at 1 (not Kabat).
Affinities are written as log10 Kd with Kd in nM; a lower number is a better binder.
The mean shown is taken over the replicates in which the pair was detected.
A pair that was not seen in that replicate is written "nd"; this usually means weak binding, but a binder can also be missed.
The authors' rule: three or more of the six replicates give a measured affinity, fewer mean a poor binder.
Nonspecific signal, from three strains lacking the peptide, appeared in 4% of pairings of all light chain designs, centred on 2.64 (5% of these signals below 1.59); values are not corrected for it. The control count says in how many pairings with the empty strains this scFv gave a signal, with their mean in brackets.
A sequence measured in both rounds can read differently, since the two assays cover different ranges.

changes	replicates, log10 nM	log10 Kd (nM), mean	signal with controls
S26Q/S28G/N35V/W56G	-0.04 / -0.14 / -0.37 / -0.23 / -0.28 / -0.17	-0.20	2/18 (3.26)
R34G/W56E/T59Q	0.76 / 1.22 / -0.19 / 0.05 / 0.15 / 0.69	0.45	0/18
S25V/V29F/S38Q/W56G/P101T	nd / nd / nd / nd / nd / nd	nd	0/18
S26Q/V29Q/L30E/W56N/S62D	0.09 / 0.29 / 0.45 / 0.56 / 0.24 / 0.16	0.30	1/18 (2.08)
K24H/Q27P/K36S/W56N	0.58 / 0.06 / 0.03 / 0.08 / 0.42 / 0.29	0.24	0/18
Q27D/V29Y/Y31E/W56E	-0.09 / -0.15 / -0.16 / -0.01 / -0.06 / -0.02	-0.08	0/18
S25V/Q27W/Y31F/W56D/E61S	0.27 / -0.06 / 0.04 / -0.11 / -0.03 / 0.25	0.06	1/18 (2.93)
K24H/S25L/Q27P/L30P/W56N	-0.22 / -0.32 / -0.46 / -0.57 / -0.21 / -0.14	-0.32	0/18
S26P/N35D/W56H/S62D	0.19 / 0.02 / -0.07 / -0.05 / -0.08 / 0.13	0.02	2/18 (3.10)
Y31N/S33P/W56D	0.10 / -0.17 / -0.24 / -0.32 / -0.23 / -0.10	-0.16	0/18
Q27W/R34N/W56N/S62D	0.55 / 0.05 / -0.08 / -0.02 / 0.01 / 0.02	0.09	0/18
K24L/V29W/W56G	0.16 / 0.08 / 0.00 / -0.03 / 0.06 / 0.23	0.08	3/18 (3.13)
S26K/S28G/V29W/W56G/S62D	-0.22 / -0.31 / -0.36 / -0.47 / -0.30 / -0.20	-0.31	1/18 (2.06)
K24L/Q27I/V29Y/R34P/W56E/S62V	0.59 / 0.13 / -0.04 / 0.02 / 0.06 / 0.37	0.19	0/18
K24H/S25L/Q27D/Y31L/W56N/S103N	0.27 / 0.29 / 0.11 / 0.34 / 0.30 / 0.48	0.30	0/18
S25M/Y31N/W56D	0.09 / -0.13 / -0.10 / -0.28 / -0.22 / -0.03	-0.11	1/18 (2.63)
S25L/Q27I/V29Y/K36T/W56E	0.06 / 0.02 / -0.03 / -0.13 / 0.06 / 0.14	0.02	1/18 (2.20)
S26D/S28G/W56G/T59Q/E61I	0.24 / 0.01 / 0.17 / -0.02 / 0.00 / 0.19	0.10	1/18 (4.04)
Q27I/R34L/W56E	1.55 / nd / nd / 1.57 / nd / 2.20	1.77	0/18
Y31T/S33P/W56D	0.36 / -0.45 / -0.06 / 0.24 / -0.08 / 0.11	0.02	1/18 (3.97)
Q27L/V29F/W56G	-0.38 / -0.40 / -0.36 / -0.44 / -0.54 / -0.36	-0.41	2/18 (3.25)
S25Q/V29H/Y31C/W56D	nd / 2.10 / nd / 3.03 / 1.90 / 1.25	2.07	0/18
K24H/Q27P/L30H/W56N/S62E/Q96D	0.14 / 0.16 / -0.29 / -0.20 / -0.04 / 0.32	0.02	0/18
S28E/L30D/Y31F/W56D	-0.32 / -0.28 / -0.51 / -0.58 / -0.35 / -0.21	-0.37	0/18
S25I/S26D/S28G/V29A/W56G	-0.29 / -0.33 / -0.26 / -0.53 / -0.55 / -0.27	-0.37	2/18 (2.17)
S25V/Q27W/W56D	-0.18 / -0.19 / -0.24 / -0.40 / -0.25 / -0.10	-0.23	0/18
V29F/S33A/K36F/W56D	-0.05 / -0.03 / -0.57 / -0.12 / -0.19 / -0.24	-0.20	0/18
K24H/Q27P/K36G/W56N/E61L	0.59 / 0.60 / 0.65 / 0.37 / 0.52 / 0.81	0.59	0/18
S25V/Q27C/V29Y/Y31L/W56E	-0.07 / -0.18 / -0.37 / -0.34 / -0.26 / 0.01	-0.20	2/18 (2.89)
S25Q/R34M/W56D	0.47 / -0.12 / 0.10 / 0.08 / 1.31 / 0.72	0.43	0/18
S26P/Q27I/V29F/W56E	-0.42 / -0.42 / -0.58 / -0.70 / -0.50 / -0.51	-0.52	0/18
K24H/Q27P/L30Y/W56N/E61H	0.47 / 0.47 / 1.45 / 0.36 / 0.14 / 0.76	0.61	0/18
S25Q/S26P/S28E/V29K/W56D	-0.11 / -0.12 / -0.34 / -0.37 / 0.11 / -0.06	-0.15	0/18
K24H/Q27P/L30P/S38N/W56N	-0.37 / -0.49 / -0.46 / -0.70 / -0.56 / -0.47	-0.51	0/18
S25V/Q27I/V29Y/Y31L/W56E/S58M	-0.01 / -0.12 / -0.03 / -0.36 / -0.14 / -0.07	-0.12	0/18
S26Q/V29F/W56G/Q96D	-0.04 / -0.18 / -0.02 / 0.23 / -0.48 / 0.09	-0.07	0/18
K24H/S25L/Q27W/S28L/W56N	0.09 / 0.04 / -0.04 / -0.06 / -0.03 / 0.15	0.03	0/18
S25F/S28L/S33G/N35T/W56N	0.44 / 0.32 / 0.34 / 0.14 / 0.35 / 0.53	0.35	2/18 (3.16)
K24H/Q27P/V29E/L30A/W56N	0.40 / -0.07 / -0.02 / 0.25 / 0.11 / 0.24	0.15	1/18 (2.50)
Q27W/Y31F/W56D/E61S/S62E	-0.09 / -0.18 / -0.28 / -0.19 / -0.17 / 0.02	-0.15	4/18 (2.72)
S25F/N35T/S38G/W56D	0.45 / 0.46 / 0.32 / 0.06 / 0.23 / 0.33	0.31	1/18 (2.38)
Q27G/R34H/W56N/E61M	0.40 / 0.37 / 0.38 / 0.34 / 0.26 / 0.39	0.36	1/18 (3.06)
S25E/Y31M/S33W/W56D	0.32 / 0.00 / 0.09 / 0.13 / 0.25 / 0.20	0.16	2/18 (1.93)
S25V/Q27I/V29Y/Y31L/W56E/S58N	-0.02 / -0.28 / -0.22 / -0.04 / 0.02 / -0.09	-0.10	0/18
S25L/S26R/Q27M/V29T/W56H	0.27 / 0.13 / 0.18 / 0.32 / 0.27 / 0.31	0.25	2/18 (3.31)
S25L/S28G/V29W/W56N/S62D	-0.23 / -0.52 / -0.46 / -0.77 / -0.59 / -0.20	-0.46	0/18
S25Q/S38N/W56D/R99W	0.29 / 0.08 / 0.11 / 0.17 / 0.02 / 0.18	0.14	1/18 (2.44)
S25F/N35V/K36S/W56N	0.02 / -0.02 / -0.19 / -0.40 / -0.15 / 0.00	-0.12	0/18
K24H/S25V/Q27P/W56N/A57G/S62V	-0.01 / -0.34 / -0.39 / -0.48 / -0.51 / -0.26	-0.33	1/18 (2.33)
S25L/S26R/V29M/K36Q/W56N	-0.01 / -0.27 / -0.37 / -0.40 / -0.27 / -0.18	-0.25	0/18
L30K/Y31F/W56E	0.37 / 0.33 / 0.62 / 0.05 / 0.29 / 0.39	0.34	1/18 (2.38)

A selection of 7 entries from above:

{"changes": "S26Q/S28G/N35V/W56G", "replicates, log10 nM": "-0.04 / -0.14 / -0.37 / -0.23 / -0.28 / -0.17", "log10 Kd (nM), mean": "-0.20", "signal with controls": "2/18 (3.26)"}
{"changes": "K24H/S25V/Q27P/W56N/A57G/S62V", "replicates, log10 nM": "-0.01 / -0.34 / -0.39 / -0.48 / -0.51 / -0.26", "log10 Kd (nM), mean": "-0.33", "signal with controls": "1/18 (2.33)"}
{"changes": "K24H/Q27P/K36G/W56N/E61L", "replicates, log10 nM": "0.59 / 0.60 / 0.65 / 0.37 / 0.52 / 0.81", "log10 Kd (nM), mean": "0.59", "signal with controls": "0/18"}
{"changes": "S26Q/V29F/W56G/Q96D", "replicates, log10 nM": "-0.04 / -0.18 / -0.02 / 0.23 / -0.48 / 0.09", "log10 Kd (nM), mean": "-0.07", "signal with controls": "0/18"}
{"changes": "S25V/Q27I/V29Y/Y31L/W56E/S58M", "replicates, log10 nM": "-0.01 / -0.12 / -0.03 / -0.36 / -0.14 / -0.07", "log10 Kd (nM), mean": "-0.12", "signal with controls": "0/18"}
{"changes": "Y31T/S33P/W56D", "replicates, log10 nM": "0.36 / -0.45 / -0.06 / 0.24 / -0.08 / 0.11", "log10 Kd (nM), mean": "0.02", "signal with controls": "1/18 (3.97)"}
{"changes": "S25Q/R34M/W56D", "replicates, log10 nM": "0.47 / -0.12 / 0.10 / 0.08 / 1.31 / 0.72", "log10 Kd (nM), mean": "0.43", "signal with controls": "0/18"}